scFv variants of Ab-14 (heavy chain) against a SARS-CoV-2 spike peptide

Target peptide (SARS-CoV-2 spike, HR2 region): PDVDLGDISGINAS

Parent: Ab-14, a human scFv built as VH, a (GGGGS)3 linker, VL. Only the CDRs of the heavy chain vary.
VH: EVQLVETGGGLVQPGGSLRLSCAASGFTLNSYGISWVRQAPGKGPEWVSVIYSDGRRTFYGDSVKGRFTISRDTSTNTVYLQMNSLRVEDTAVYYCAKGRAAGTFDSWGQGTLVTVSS
VL: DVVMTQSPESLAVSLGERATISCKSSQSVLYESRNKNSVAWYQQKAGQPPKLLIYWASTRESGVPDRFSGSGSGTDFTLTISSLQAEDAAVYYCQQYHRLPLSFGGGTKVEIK

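Phage display of a naive human antibody library on the peptide gave the parent. This is the validation round: designs drawn from the data on random variants, tested in the same kind of assay. Group labels follow the data file (Ctrl: baseline library sampled from a position-specific scoring matrix, with some repeated check sequences; Rand: our label for a block that the file lists under HC and that is probably the random mutants of the ten best first-round binders; En: ensemble of fine-tuned language models; GP: Gaussian process model; GPLM: also part of the Gaussian process libraries; HC: hill climbing; Gen: genetic algorithm; Gibbs: Gibbs sampling; a sequence that several methods proposed may carry one label only). Affinity was read by AlphaSeq, a pooled yeast mating assay with surface-displayed partners. Pairs that bind mate more often; barcode pairs of the diploids are counted by sequencing. A regression on co-assayed BCL2-family reference pairs converts the normalised counts of each replicate to an apparent Kd. There are six technical replicates.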

Each variant is given by its three heavy chain CDRs, as the data file delimits them; those of the parent are GFTLNSYGIS, VIYSDGRRTFYGDSVK, GRAAGTFDS.
Numbers give log10(Kd / nM), so 0 is 1 nM and 3 is 1 µM. Smaller is tighter.
The mean shown is taken over the replicates in which the pair was detected.
Where no diploid with the target was found in any replicate, the entry reads "not detected": below detection, most likely a poor binder, though not proof of it.
In the paper, a design with two or fewer of six values counts as a poor binder.
The range of this assay differs from that of the first round, and the authors advise against merging the two.
Nonspecific signal, from three strains lacking the peptide, appeared in 1% of pairings of all heavy chain designs, centred on 2.08 (5% of these signals below 0.84); values are not corrected for it.
The parent sequence was in this pool as ten entries: three were never detected, three once, and four in most replicates, with averages from 0.34 to 2.37.

| CDR-H1 | CDR-H2 | CDR-H3 | group | mean, log10 nM | seen in |
|---|---|---|---|---|---|
| GFPLNDYGIS | VIYSDGRRTYYGDSVK | GRAAGTFDS | GP_HC | not detected | 0 of 6 |
| GFDLNEYGIS | VIYADGKRTVYADSVK | GQVAGTFDV | En_Gen | -0.61 | 6 of 6 |
| GFDLQEYGIS | VIYADGQRVNAVSQVK | GEQAGGFKL | En_Gibbs | not detected | 0 of 6 |
| GFSLNSYGIS | VIYSDGRRTFYGDSVK | GSEAGTFDT | GP_Gen | -0.54 | 6 of 6 |
| GFDLDEYGIS | VIYADGMRTFYADSVK | GEVAGTFDT | En_Gen | 0.08 | 6 of 6 |
| GFTLNDYGIS | VIYSDGRRTFYGDSVK | GSAAGTFDQ | Ctrl | -0.07 | 4 of 6 |
| GFTLNMYGIS | VIYSDGRRTFYTDSVK | GRAAGTNVS | Ctrl | not detected | 0 of 6 |
| GFDLDEYGIS | VIYADGMRTFYADSVK | GNTAGTFLS | En_HC | -0.14 | 6 of 6 |
| GFDLNEYGIS | VIYADGSRTFYADSVK | GEIAGSFDQ | En_HC | -0.23 | 6 of 6 |
| GFELNSYGIS | VIYSDGRRTFYADSVK | GKAAGTFDS | GPLM_Gen | 0.36 | 6 of 6 |
| GFNLDEYGIS | VIYADGVRTQYAQSFK | GMSFGYIAG | En_Gibbs | not detected | 0 of 6 |
| GFTLPDYGIS | VIYSDGRRTQYIDSVK | GRAKGTFDS | Rand | not detected | 0 of 6 |
| GFDLDEYGIS | VIYADGMRTAYADNVK | GTNAGTFDV | En_Gen | -0.36 | 6 of 6 |
| GFSLNDYGIS | VIYSDGRRTFYIDSVK | GKAAGTFDS | GPLM_Gen | 1.05 | 6 of 6 |
| GFTLNSYGIS | VIYSDGRRTFYGDKVK | GRAAGTFDS | Ctrl | 1.82 | 1 of 6 |
| GFTLNEYGIS | VIYSDGRRTFYGDSVK | GRAAGTFHT | GP_HC | 0.92 | 6 of 6 |
| GFDLDEYGIS | VIYADGRRTFYSDNVK | GEAGGTFDI | En_HC | not detected | 0 of 6 |
| GFWLDEYGIS | VIYADGMRTAYKNSVK | GSFTYVMFV | En_Gibbs | not detected | 0 of 6 |
| GFDLNEYGIS | VIYADGMRTFYADSVK | GELAGTFDF | En_HC | -0.82 | 6 of 6 |
| GFDLDEYGIS | VIYADGMRTYYADSVK | GEVAGTFDL | En_Gen | -0.23 | 6 of 6 |
| GFELNSYGIS | VIYSDGRRTFYGDSVK | GRVAGTFDL | GPLM_Gibbs | 0.82 | 6 of 6 |
| GFDLNEYGIS | VIYADGSRTFYADSVK | GEEAGSFDQ | En_HC | 1.38 | 6 of 6 |
| GFDLNEYGIS | VIYADGSRTFYSDSVK | GETAGTFDA | En_HC | -0.14 | 6 of 6 |
| GFDLNEYGIS | VIYADGRRTFYIDSVK | GEIAGTFNI | En_HC | -0.30 | 6 of 6 |
| GFDLNTYGIS | VIYSDGRRTFYSDSVK | GEAAGTFDS | GPLM_Gibbs | 1.40 | 5 of 6 |
| GFTLKSYGIS | VIYSDGRRTFYGDSVK | GRVADTFTS | Ctrl | not detected | 0 of 6 |
| GPNLEEYGIS | VIYADGIRTAYKDSVK | GDVAGIGKF | En_Gibbs | 0.60 | 6 of 6 |
| GFHLNDYGIS | VIYSDGRRTFYHDSVK | GRLAGTFDS | GP_HC | 0.61 | 4 of 6 |
| GFTLNEYGIS | VIYSDGRRTFYGDSVK | GRYAVTFDI | GP_HC | not detected | 0 of 6 |
| GFDLNEYGIS | VIYADGKRTVYADSVK | GETAGTFDV | En_Gen | -0.27 | 6 of 6 |
| GFDLNSYGIS | VIYSDGKRTFYGDSVK | GRLAGTFDS | GP_Gen | -0.15 | 6 of 6 |
| GFNLNEYGIS | VIYADGRRTFYSDSVK | GETAGTFDV | En_HC | -0.33 | 6 of 6 |
| GITLNDYGIS | VIYSDGRRTFYQDSVK | GRAAGTFDS | Ctrl | 3.15 | 5 of 6 |
| GFTLNEYGIS | VIYSDGRRTFYTDSVK | GRFAGTFDT | GPLM_HC | 0.52 | 6 of 6 |
| GFNLNSYGIS | VIYSDGRRTFYADSVK | GRLAGTFDS | GPLM_Gibbs | 1.04 | 6 of 6 |
| GFDLNEMGIH | VIYADGIRTVVSNDVK | GNVAGTIDV | En_Gibbs | -0.69 | 6 of 6 |
| GFDLDEYGIS | VIYADGKRTAYSDSVK | GENAGTFDV | En_Gen | 0.47 | 6 of 6 |
| GFWLNSYGIS | VIYSDGRRTAYGDKVK | GTAAGTFDS | Ctrl | -0.29 | 6 of 6 |
| GFELNSYGIS | VIYSDGRRTYYGDSVK | GRTAGTFDS | GPLM_Gibbs | 1.12 | 6 of 6 |
| GFTLDSYGIS | VIYSDGRRTFYVDSVK | GRAAGTFDS | GP_HC | 0.58 | 2 of 6 |
| GFDLDEYGIS | VIYADGVRTAYTDSVK | GNNAGTFDV | En_Gen | -0.16 | 6 of 6 |
| GFHLNSYGIS | VIYSDGRRTFYADSVK | GKEAGTFDT | GP_Gibbs | 0.27 | 6 of 6 |
| GFTLNSYGIS | VIYSDGRRTEYKDSVR | GRAAGTFDS | Ctrl | 1.30 | 2 of 6 |
| GFTLNEYGIS | VIYADGRRTFYGDSVK | GRAAGTFIS | GPLM_HC | 1.76 | 3 of 6 |
| GFDIEEFGIS | VIYADGRQTAYAQKVK | GTIAGTFVD | En_Gibbs | 0.86 | 5 of 6 |
| GFSLNNYGIS | VIYSDGRRTFYGDSVK | GEAAGTFDS | GPLM_Gen | 0.23 | 6 of 6 |
| GFQLNSYGIS | VIYSDGRRTFYKDSVK | GEAAGTFDS | GP_Gen | 1.58 | 3 of 6 |
| GKSLDEYGIS | VIYADGMRKEYTDSVK | GQFDDAMDL | En_Gibbs | not detected | 0 of 6 |
| GFDLDEYGIS | VIYADGMRTAYIDSVK | GNVAGTFDQ | En_Gen | -0.41 | 6 of 6 |
| GFSLNTYGIS | VIYSDGRRTFYADSVK | GRAAGTFDS | GPLM_Gen | -0.62 | 5 of 6 |
| GFTLNSYGIS | VIYSDGRRTFYSDLVK | GRAGGTFDS | Rand | not detected | 0 of 6 |
| GFTLNSYGIS | VIYSDGRRTFYDDSVK | GKLAGTFDR | GP_HC | 1.56 | 2 of 6 |
| GFDLNEYGIS | VIYADGTRTAYADSVK | GNVAGTFDI | En_Gen | -0.71 | 6 of 6 |
| GFDLNSYGIS | VIYSDGMRTFYVDSVK | GRQAGTFDS | GP_Gen | 1.16 | 6 of 6 |
| GFRLNEYGIS | VIYSDGRRTFYGDSVK | GKAAGTFDQ | GP_HC | 0.84 | 6 of 6 |
| GFDLNEYGIS | VIYADGQRTAYADSVK | GNEAGTFDV | En_Gen | -0.34 | 6 of 6 |
| GFTLNEYGIS | VIYSDGRRTFYGDSVK | GRAAVTFDK | GPLM_HC | -0.47 | 6 of 6 |
| GFDLNEYGIS | VIYADGVRTAYSDSVK | GNVAGTFDT | En_Gen | 0.10 | 6 of 6 |
| GFTLESYGIS | VIYSDGRRTFYADRVK | GRAAGTFDV | GP_Gibbs | 2.30 | 6 of 6 |
| GFDLNEYGIS | VIYADGQRTYYADSVK | GNVAGTFDI | En_Gen | -0.05 | 6 of 6 |

A selection of 7 entries from above:

CDR-H1	CDR-H2	CDR-H3	group	mean, log10 nM	seen in
GFNLDEYGIS	VIYADGVRTQYAQSFK	GMSFGYIAG	En_Gibbs	not detected	0 of 6
GFDLDEYGIS	VIYADGMRTAYIDSVK	GNVAGTFDQ	En_Gen	-0.41	6 of 6
GFDLNEYGIS	VIYADGQRTYYADSVK	GNVAGTFDI	En_Gen	-0.05	6 of 6
GFTLDSYGIS	VIYSDGRRTFYVDSVK	GRAAGTFDS	GP_HC	0.58	2 of 6
GFDLNTYGIS	VIYSDGRRTFYSDSVK	GEAAGTFDS	GPLM_Gibbs	1.40	5 of 6
GFHLNDYGIS	VIYSDGRRTFYHDSVK	GRLAGTFDS	GP_HC	0.61	4 of 6
GFTLNDYGIS	VIYSDGRRTFYGDSVK	GSAAGTFDQ	Ctrl	-0.07	4 of 6

From the AlphaSeq antibody data of Li et al. 2023 (doi:10.1038/s41467-023-39022-2), copy in the FLAb collection.